What is called IC50 is the midpoint of a concentration-inhibition curve.

The structures appear in SMILES notation.

The source of these data is patent US6433001B1, “1H-indole-3-glyoxylamide sPLA2 inhibitors” (Eli Lilly and Company, priority 1994, dated 2002).

The target of test [1] is T1, Human Secreted Phospholipase A2 (Homo sapiens, UniProt P14555).
T1 sequence (P14555 21-144): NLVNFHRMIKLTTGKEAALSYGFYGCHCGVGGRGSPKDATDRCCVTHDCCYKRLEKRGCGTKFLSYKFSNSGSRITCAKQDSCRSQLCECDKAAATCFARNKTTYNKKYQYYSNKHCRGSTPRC
Briefly: chromogenic assay for inhibitors of recombinant human secreted phospholipase A2. In kind it is biochemical. Particulars: diheptanoyl thio-PC substrate, pH 7.5, 40° C. for 30 minutes, absorbance at 405 nanometers; read-out: Inhibition of human secreted PLA2 IC50 ± mean deviation (3-4 tests). The procedure: The following chromogenic assay procedure was used to identify and evaluate inhibitors of recombinant human secreted phospholipase A2. The assay described herein has been adapted for high volume screening using 96 well microtiter plates.
Adjust pH to 4.5 with acetic acid
DTNB—5,5′-dithiobis-2-nitrobenzoic acid
RACEMIC DIHEPTANOYL THIO—PC
racemic 1,2-bis(heptanoylthio)-1,2-dideoxy-sn-glycero-3-phosphorylcholine
TRITON X-100™ prepare at 6.249 mg/ml in reaction buffer to equal […].
A measured volume of racemic dipheptanoyl thio PC supplied in chloroform at a concentration of 100 mg/ml is taken to dryness and redissolved in 10 millimolar TRITON X-100™ nonionic detergent aqueous solution.
Reaction Buffer is added to the solution, then DTNB to give the Reaction Mixture.
The reaction mixture thus obtained contains 1 mM diheptanoly thio-PC substrate, 0.29 mm Triton X-100™ detergent, and 0.12 mm DTMB in a buffered aqueous solution at pH 7.5.
1. Add 0.2 ml reaction mixture to all wells;
2. Add 10 ul test compound (or solvent blank) to appropriate wells, mix 20 seconds;
3. […]
5. Read absorbance of wells at 405 nanometers with an automatic plate reader.
All compounds were tested in triplicate. […] In all cases, % inhibition measured at 405 nanometers generated by enzyme reactions containing inhibitors relative to the uninhibited control reactions was determined. […]

Test [2] deals with T1, Human Secreted Phospholipase A2. Nature of the test: guinea pig lung pleural strip tissue test, sPLA2-induced contraction. The class given is cell-based. The source says: Male Hartley strain guinea pigs (500-700 g) were killed by cervical dislocation and their heart and lungs removed intact and placed in aerated (95% O2:5% CO2) Krebs buffer. Dorsal pleural strips (4×1×25 mm) were dissected from intact parenchymal segments (8×4×25 mm) cut parallel to the outer edge of the lower lung lobes. Two adjacent pleural strips, obtained from a single lobe and representing a single tissue sample, were tied at either end and independently attached to a metal support rod. One rod was attached to a Grass force-displacement transducer (Model FTO3C, product of Grass Medical Instruments Co., Quincy, Mass., USA). […] All tissues were placed in 10 ml jacketed tissue baths maintained at 37° C. […]
Initially tissues were challenged 3 times with KCl (40 mM) to test tissue viability and to obtain a consistent response. […] To minimize variability between tissues obtained from different animals, contractile responses were expressed as a percentage of the maximal response obtained with the final KCl challenge. […]
Data from different experiments were pooled and presented as a percentage of the maximal KCl responses (mean±S.E.). To estimate the drug induced rightward shifts in the concentration response curves, the curves were analyzed simultaneously using statistical nonlinear modeling methods similar to those described by Waud (1976), Equation 26, p. […]

With `CCc1c(C(=O)C(N)=O)c2c(OCC(=O)O)cccc2n1Cc1ccccc1` [Example 9, [[3-(2-Amino-1,2-dioxoethyl)-2-ethyl-1-(phenylmethyl)-1H-indol-4-yl]oxy]acetic Acid], the IC50 in test [1] came to 9 ± 1.73 nM. The compound further gave a Kb in test [2] of 88.7 ± 18.2 nM.
